Measurements published in ChEMBL document CHEMBL6074678, “Selectively Antagonizing the NOD1-Mediated Inflammatory Signaling Pathway Mitigates the Gastric Inflammation Induced by Helicobacter pylori Infection” (J Med Chem, 2024).

Sequences of proteins named here, by UniProt entry; tags and fusion partners are left off.
UniProt Q9HC29, whole entry: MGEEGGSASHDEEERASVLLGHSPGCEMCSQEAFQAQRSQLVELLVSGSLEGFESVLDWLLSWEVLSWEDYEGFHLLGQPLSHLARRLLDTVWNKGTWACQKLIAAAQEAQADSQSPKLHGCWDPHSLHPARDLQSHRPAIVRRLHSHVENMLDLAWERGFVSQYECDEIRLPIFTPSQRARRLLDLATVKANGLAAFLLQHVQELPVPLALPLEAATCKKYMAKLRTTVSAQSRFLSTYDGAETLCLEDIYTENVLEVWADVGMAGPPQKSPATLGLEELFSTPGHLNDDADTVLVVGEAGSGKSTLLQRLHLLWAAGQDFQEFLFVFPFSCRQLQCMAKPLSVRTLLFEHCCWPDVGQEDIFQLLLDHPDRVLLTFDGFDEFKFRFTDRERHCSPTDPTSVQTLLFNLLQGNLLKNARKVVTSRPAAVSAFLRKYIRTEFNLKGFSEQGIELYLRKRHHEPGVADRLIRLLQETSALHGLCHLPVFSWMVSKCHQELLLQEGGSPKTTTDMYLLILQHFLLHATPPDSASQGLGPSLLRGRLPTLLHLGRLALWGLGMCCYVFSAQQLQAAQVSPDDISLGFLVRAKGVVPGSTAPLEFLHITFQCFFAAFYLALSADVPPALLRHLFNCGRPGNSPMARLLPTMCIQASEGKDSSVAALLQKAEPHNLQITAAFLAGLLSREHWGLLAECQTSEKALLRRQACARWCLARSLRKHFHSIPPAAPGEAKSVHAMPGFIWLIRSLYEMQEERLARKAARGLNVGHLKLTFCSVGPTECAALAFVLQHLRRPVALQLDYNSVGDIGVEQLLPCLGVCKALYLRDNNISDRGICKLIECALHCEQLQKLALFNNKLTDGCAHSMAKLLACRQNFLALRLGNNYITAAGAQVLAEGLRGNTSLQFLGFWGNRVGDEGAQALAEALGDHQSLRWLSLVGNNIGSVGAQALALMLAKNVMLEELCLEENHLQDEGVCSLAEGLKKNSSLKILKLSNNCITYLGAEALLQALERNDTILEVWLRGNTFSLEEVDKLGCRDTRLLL
UniProt O43353, whole entry: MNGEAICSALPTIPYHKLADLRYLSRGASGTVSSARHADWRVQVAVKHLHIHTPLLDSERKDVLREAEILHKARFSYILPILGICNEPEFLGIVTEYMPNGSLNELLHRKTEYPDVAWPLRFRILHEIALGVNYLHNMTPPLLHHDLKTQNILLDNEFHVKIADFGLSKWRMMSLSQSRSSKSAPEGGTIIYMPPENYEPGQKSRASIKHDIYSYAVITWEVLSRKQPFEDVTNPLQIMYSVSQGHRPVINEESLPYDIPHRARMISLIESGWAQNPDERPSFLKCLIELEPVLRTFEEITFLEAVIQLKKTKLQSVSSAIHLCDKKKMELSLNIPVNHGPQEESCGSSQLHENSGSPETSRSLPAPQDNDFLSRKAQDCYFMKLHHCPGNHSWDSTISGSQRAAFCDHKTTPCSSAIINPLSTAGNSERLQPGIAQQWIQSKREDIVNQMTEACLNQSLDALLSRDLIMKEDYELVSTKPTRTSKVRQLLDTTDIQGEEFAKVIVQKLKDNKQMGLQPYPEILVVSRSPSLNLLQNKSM
UniProt O60603, whole entry: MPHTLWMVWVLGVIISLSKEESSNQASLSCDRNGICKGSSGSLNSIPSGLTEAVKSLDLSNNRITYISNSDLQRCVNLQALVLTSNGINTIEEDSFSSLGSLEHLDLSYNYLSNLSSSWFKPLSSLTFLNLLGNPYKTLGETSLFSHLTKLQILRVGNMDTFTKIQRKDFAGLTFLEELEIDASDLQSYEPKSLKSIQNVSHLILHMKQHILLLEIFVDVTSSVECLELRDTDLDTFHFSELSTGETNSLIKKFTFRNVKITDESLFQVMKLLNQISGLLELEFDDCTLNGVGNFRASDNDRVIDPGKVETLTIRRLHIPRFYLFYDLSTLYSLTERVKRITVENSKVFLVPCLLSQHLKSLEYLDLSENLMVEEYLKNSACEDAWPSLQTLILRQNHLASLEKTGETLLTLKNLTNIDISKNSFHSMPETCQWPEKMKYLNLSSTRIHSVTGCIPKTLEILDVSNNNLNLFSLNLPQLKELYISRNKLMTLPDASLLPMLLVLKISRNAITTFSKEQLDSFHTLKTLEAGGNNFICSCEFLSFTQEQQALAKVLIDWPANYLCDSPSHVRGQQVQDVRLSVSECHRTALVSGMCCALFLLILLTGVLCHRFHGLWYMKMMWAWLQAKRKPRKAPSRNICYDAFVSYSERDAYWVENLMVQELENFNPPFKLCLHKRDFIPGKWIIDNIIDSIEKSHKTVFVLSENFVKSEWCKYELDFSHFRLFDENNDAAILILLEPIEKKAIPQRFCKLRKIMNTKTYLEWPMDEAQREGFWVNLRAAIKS
UniProt O00206, whole entry: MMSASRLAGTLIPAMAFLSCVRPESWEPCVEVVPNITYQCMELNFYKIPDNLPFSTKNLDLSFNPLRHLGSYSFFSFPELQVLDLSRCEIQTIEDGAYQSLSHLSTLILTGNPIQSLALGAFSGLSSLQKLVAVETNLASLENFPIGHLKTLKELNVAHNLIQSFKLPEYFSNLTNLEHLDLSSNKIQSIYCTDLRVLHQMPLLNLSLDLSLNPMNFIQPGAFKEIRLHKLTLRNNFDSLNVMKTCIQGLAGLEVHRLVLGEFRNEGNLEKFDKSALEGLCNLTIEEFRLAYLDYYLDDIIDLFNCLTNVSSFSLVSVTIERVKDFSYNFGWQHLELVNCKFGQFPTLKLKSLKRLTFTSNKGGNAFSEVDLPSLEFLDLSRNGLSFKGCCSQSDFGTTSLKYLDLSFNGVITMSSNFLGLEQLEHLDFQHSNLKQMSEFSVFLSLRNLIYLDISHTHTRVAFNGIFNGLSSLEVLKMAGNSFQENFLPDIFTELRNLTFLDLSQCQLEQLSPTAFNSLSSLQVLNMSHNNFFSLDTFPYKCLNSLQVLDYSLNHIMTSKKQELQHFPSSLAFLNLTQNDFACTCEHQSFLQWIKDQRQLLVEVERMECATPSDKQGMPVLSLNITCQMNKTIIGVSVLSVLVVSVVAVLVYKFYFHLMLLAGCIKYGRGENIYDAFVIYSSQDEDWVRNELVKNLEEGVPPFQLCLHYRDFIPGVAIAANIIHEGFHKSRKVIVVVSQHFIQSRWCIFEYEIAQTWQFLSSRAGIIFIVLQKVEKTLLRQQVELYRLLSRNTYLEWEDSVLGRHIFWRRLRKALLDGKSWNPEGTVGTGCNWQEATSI

What was measured:
[1] = target: T1, Nucleotide-binding oligomerization domain-containing protein 1 (Mus musculus) (UniProt Q8BHB0); test: Antagonist activity at mouse NOD1 expressed in HEK-Blue cells assessed as decrease in SEAP secretion at 1 uM incubated for 3 hrs followed by C12-iE-DAP stimulation for 20 hrs by spectrophotometry relative to control; format: cell-based
T1 sequence (whole entry): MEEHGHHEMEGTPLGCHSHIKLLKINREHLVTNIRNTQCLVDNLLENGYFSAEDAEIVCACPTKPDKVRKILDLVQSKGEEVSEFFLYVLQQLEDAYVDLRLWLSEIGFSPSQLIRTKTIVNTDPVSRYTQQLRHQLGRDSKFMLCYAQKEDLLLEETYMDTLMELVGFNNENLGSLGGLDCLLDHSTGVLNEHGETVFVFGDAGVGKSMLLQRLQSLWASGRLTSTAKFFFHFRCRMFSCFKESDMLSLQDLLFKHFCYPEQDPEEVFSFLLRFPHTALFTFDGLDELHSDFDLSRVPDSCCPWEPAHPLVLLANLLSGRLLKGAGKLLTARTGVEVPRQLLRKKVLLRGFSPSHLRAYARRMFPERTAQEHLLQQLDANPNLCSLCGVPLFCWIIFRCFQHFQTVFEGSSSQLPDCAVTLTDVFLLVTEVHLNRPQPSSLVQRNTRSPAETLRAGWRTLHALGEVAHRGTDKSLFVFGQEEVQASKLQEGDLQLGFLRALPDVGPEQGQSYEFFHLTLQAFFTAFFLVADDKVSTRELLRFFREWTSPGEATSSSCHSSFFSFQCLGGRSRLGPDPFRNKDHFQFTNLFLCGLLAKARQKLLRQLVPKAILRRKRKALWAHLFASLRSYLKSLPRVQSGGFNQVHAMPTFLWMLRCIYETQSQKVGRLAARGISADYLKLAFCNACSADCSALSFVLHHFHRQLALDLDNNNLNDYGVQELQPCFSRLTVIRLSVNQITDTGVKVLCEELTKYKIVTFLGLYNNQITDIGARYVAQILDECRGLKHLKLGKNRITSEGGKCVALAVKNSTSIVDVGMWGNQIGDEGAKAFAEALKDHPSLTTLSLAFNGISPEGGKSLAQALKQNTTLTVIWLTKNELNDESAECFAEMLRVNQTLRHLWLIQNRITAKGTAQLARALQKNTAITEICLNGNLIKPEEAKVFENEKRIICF

[2] = target: T1, Nucleotide-binding oligomerization domain-containing protein 1 (Mus musculus); test: Antagonist activity at mouse NOD1 expressed in HEK-Blue cells assessed as decrease in SEAP secretion at 5 uM incubated for 3 hrs followed by C12-iE-DAP stimulation for 20 hrs by spectrophotometry relative to control; format: cell-based
[3] = target: T2, Nucleotide-binding oligomerization domain-containing protein 2 (Mus musculus) (UniProt Q8K3Z0); test: Inhibition of mouse NOD2 at 1 uM relative to control
T2 sequence (whole entry): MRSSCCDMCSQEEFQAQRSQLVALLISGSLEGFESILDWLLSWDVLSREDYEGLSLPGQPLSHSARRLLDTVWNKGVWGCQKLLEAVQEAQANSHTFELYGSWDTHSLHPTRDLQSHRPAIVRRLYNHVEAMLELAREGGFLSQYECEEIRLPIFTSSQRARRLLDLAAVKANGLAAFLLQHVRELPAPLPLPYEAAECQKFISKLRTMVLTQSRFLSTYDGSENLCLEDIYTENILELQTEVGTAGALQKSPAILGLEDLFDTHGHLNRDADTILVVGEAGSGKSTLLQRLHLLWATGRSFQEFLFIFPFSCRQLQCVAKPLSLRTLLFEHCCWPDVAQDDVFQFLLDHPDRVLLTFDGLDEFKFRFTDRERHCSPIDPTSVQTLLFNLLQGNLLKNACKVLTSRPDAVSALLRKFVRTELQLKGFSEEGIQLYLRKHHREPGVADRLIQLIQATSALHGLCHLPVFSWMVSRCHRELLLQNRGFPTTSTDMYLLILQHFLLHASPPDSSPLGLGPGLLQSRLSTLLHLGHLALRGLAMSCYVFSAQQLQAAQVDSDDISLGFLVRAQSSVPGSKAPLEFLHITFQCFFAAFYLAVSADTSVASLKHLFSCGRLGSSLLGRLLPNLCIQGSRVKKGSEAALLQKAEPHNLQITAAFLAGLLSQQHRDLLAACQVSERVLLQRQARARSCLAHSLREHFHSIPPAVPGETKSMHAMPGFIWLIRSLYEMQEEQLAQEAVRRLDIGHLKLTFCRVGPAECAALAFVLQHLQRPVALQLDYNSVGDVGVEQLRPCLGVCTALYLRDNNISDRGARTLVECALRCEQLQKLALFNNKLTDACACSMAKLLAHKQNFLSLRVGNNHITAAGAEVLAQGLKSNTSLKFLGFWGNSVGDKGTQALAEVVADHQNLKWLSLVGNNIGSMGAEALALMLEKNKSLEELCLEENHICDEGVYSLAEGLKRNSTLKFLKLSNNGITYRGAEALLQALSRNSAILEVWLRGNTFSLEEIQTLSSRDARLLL

[4] = target: Nucleotide-binding oligomerization domain-containing protein 2 (Homo sapiens, UniProt Q9HC29); test: Inhibition of human NOD2 at 1 uM relative to control
[5] = target: Receptor-interacting serine/threonine-protein kinase 2 (Homo sapiens) (UniProt O43353); test: Inhibition of RIP2 (unknown origin) at 10 uM relative to control
[6] = target: Toll-like receptor 2 (Homo sapiens) (UniProt O60603); test: Inhibition of human TLR2 at 1 uM relative to control
[7] = target: Toll-like receptor 4 (Homo sapiens) (UniProt O00206); test: Inhibition of human TLR4 at 1 uM relative to control
[8] = target: T3, Toll-like receptor 9 (Homo sapiens) (UniProt Q9NR96); test: Inhibition of human TLR9 at 1 uM relative to control
T3 sequence (whole entry): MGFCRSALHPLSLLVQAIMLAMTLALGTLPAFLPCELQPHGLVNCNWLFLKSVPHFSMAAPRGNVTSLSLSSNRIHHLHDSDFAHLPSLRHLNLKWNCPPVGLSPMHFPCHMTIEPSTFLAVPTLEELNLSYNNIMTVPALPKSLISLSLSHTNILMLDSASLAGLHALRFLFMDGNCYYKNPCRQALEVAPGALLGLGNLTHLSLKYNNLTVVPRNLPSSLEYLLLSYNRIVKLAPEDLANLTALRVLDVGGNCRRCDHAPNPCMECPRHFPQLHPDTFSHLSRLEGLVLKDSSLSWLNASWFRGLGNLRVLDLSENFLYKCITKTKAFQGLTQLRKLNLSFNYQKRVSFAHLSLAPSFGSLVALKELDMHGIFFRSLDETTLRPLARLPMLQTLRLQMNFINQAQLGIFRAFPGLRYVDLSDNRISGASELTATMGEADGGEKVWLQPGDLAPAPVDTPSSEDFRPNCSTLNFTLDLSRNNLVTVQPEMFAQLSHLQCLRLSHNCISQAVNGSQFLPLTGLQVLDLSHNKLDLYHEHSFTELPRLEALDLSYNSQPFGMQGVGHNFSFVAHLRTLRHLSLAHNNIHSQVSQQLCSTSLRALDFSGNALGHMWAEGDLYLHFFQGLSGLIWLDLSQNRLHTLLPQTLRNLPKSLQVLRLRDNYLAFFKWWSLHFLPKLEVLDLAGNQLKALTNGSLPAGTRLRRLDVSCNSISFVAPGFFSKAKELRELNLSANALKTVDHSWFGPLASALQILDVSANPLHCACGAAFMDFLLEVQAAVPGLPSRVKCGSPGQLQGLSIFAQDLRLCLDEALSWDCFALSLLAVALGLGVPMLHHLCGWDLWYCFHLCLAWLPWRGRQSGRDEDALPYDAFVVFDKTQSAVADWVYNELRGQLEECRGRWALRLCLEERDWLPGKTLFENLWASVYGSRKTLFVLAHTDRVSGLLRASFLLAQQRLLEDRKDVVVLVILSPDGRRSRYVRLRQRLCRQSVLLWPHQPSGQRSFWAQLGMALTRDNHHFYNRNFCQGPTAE

[9] = HEK-Blue mNOD1, filed as antagonist, time 23.0 hrs

inhibition ([1]; HEK-Blue mNOD1, time 23.0 hrs): 33.2%
Compound: O=c1c2ccc([N+](=O)[O-])cc2nc(Cl)n1-c1ccc(Cl)c(NS(=O)(=O)c2ccccc2F)c1

inhibition [1, 9]: 67.9%
Compound: O=c1c2nc(Cl)cnc2nc(Cl)n1-c1ccc(Cl)c(NS(=O)(=O)c2ccccc2F)c1

inhibition ([2]; HEK-Blue mNOD1, time 23.0 hrs): < 10%
Compound: O=c1c2cc(Cl)ccc2ncn1-c1ccc(Cl)c(NS(=O)(=O)c2ccccc2F)c1

inhibition ([1]; HEK-Blue mNOD1, time 23.0 hrs): 0%
Compound: Cc1nc2cnccc2c(=O)n1-c1ccc(Cl)c(NS(=O)(=O)c2ccccc2F)c1

inhibition [2, 9]: 43.2%
Compound: O=c1c2cc(Cl)ccc2nc(F)n1-c1ccc(Cl)c(NS(=O)(=O)c2ccccc2F)c1

inhibition [1, 9]: 85.7%
Compound: O=c1c2cc(Cl)ncc2nc(Cl)n1-c1ccc(Cl)c(NS(=O)(=O)c2ccccc2Cl)c1

inhibition [1, 9]: 71.2%
Compound: O=c1c2cc(C(F)(F)F)ccc2nc(Cl)n1-c1ccc(Cl)c(NS(=O)(=O)c2ccccc2F)c1

inhibition [1, 9]: 72.9%
Compound: Cc1noc(C)c1S(=O)(=O)Nc1cc(-n2c(Cl)nc3cnc(Cl)cc3c2=O)ccc1Cl

inhibition [1, 9]: 87.9%
Compound: O=c1c2ccncc2nc(Cl)n1-c1ccc(Cl)c(NS(=O)(=O)c2ccc([N+](=O)[O-])cc2F)c1

inhibition [1, 9]: 49.7%
Compound: O=c1c2cc(Cl)c(Cl)cc2nc(Cl)n1-c1ccc(Cl)c(NS(=O)(=O)c2ccccc2F)c1

inhibition [1, 9]: 70.3%
Compound: O=c1c2cc(Cl)ncc2nc(Cl)n1-c1ccc(Cl)c(NS(=O)(=O)c2ccc3c(c2)CCO3)c1

inhibition ([1]; HEK-Blue mNOD1, time 23.0 hrs): 38.3%
Compound: O=c1c2cc(Cl)ncc2nc(Cl)n1-c1ccc(Cl)c(NS(=O)(=O)c2ccccc2C(F)(F)F)c1

inhibition [1, 9]: 69.8%
Compound: O=c1c2cc(Cl)ncc2nc(Cl)n1-c1ccc(Cl)c(NS(=O)(=O)c2cccnc2)c1

inhibition [1, 9]: 75.8%
inhibition [3]: 27.4%
inhibition [4]: 25.2%
inhibition [5]: < 10%
inhibition [6]: 12.7%
inhibition [7]: 13.3%
inhibition [8]: 6.1%
Compound: CS(=O)(=O)c1ccc2nc(Cl)n(-c3ccc(Cl)c(NS(=O)(=O)c4ccccc4C#N)c3)c(=O)c2c1

inhibition ([1]; HEK-Blue mNOD1, time 23.0 hrs): 13.6%
Compound: O=c1c2ccncc2nc(F)n1-c1ccc(Cl)c(NS(=O)(=O)c2ccccc2F)c1

inhibition ([2]; HEK-Blue mNOD1, time 23.0 hrs): 31.9%
Compound: CSc1nc2ccc(Cl)cc2c(=O)n1-c1ccc(Cl)c(NS(=O)(=O)c2ccccc2F)c1

One block for each compound: values may come before it.
